# Antibody variant affinities, Ab-14 heavy chain, assay 1

All variants were tested on one target, the spike HR2 peptide PDVDLGDISGINAS (SARS-CoV-2).

Parent: Ab-14, a human scFv built as VH, the linker GGGGSGGGGSGGGGS, VL. Only the CDRs of the heavy chain vary.
VH: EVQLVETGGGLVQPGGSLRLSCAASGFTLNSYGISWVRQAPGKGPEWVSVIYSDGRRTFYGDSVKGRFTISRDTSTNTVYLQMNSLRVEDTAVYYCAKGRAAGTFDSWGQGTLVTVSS
VL: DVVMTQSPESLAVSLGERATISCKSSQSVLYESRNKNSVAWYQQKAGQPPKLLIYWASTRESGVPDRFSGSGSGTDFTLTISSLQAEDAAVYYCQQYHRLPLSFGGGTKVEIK

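The parent was found by panning a naive human phage display library on the peptide. AAYL49 was designed without a model: most single CDR substitutions and a random sample of double and triple ones. Affinity was read by AlphaSeq, a pooled yeast mating assay with surface-displayed partners. The frequency of each diploid, read from paired DNA barcodes, reflects how well the two displayed proteins bind. The ratio of observed to expected reads was calibrated, replicate by replicate, on BCL2-family standards whose Kd was known from biolayer interferometry. Each pool was mated in three replicate cultures.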

The parent's heavy chain CDRs are GFTLNSYGIS, VIYSDGRRTFYGDSVK, GRAAGTFDS; each variant's own CDRs replace them letter for letter.
Numbers give log10(Kd / nM), so 0 is 1 nM and 3 is 1 µM. Smaller is tighter.
"ND" means that the variant was in the library but no mating with the target was seen in that replicate; the authors take this as a sign of poor binding, and no number exists.
In this assay the parent's reference entry averaged 0.65; its copy inside this library read 4.11 (one replicate of three).

CDR-H1	CDR-H2	CDR-H3	replicates, log10 nM	empty controls
GFTLNSYPIS	VIYSDGRREFYGDSVF	GRAAGTFDS	ND / ND / ND	1/9 (3.94)
KFTLNSYGIS	VIYSDGRRTFYGDSKK	FRAAGTFDS	ND / ND / ND	1/9 (3.99)
GFTLNSYMIS	VIYSDGDRTFYGDHVK	GRAAGTFDS	3.85 / 3.86 / ND	3/9 (4.25)
GFTQNSYGIS	YIYSDGRRNFYGDSVK	GRAAGTFDS	ND / ND / ND	0/9
GFGLNSYGIS	VIYSDGRTTFNGDSVK	GRAAGTFDS	ND / ND / ND	0/9
GFTLNSYGIS	VIYVDGRRTFYGYSVY	GRAAGTFDS	ND / 3.25 / 5.78	2/9 (3.93)
GFTLNSYQLS	VIYSDGRRTAYGDSVK	GRAAGTFDS	ND / ND / ND	0/9
GFTLNSYGIL	VIYSDGRRTFYGDSVK	PRVAGTFDS	ND / ND / ND	1/9 (3.50)
GFFLNSYGIV	VIYSSGRRTFYGDSVK	GRAAGTFDS	ND / ND / ND	0/9
GFTLNSYGIS	VIYSDGRRTFYGDSKK	GCNAGTFDS	ND / ND / ND	1/9 (3.64)
GFELTSYGIS	VIYSDPRRTFYGDSVK	GRAAGTFDS	ND / ND / ND	3/9 (3.97)
GFTLFIYGIS	VIYSDIRRTFYGDSVK	GRAAGTFDS	4.93 / ND / 3.83	4/9 (4.84)
GFTLNSYGIS	RIYSDERRTFYWDSVK	GRAAGTFDS	ND / 3.69 / ND	1/9 (2.81)
GFTLNSYGIS	VIYKDGRRTFYGDHVK	GRAAGAFDS	ND / 4.75 / ND	3/9 (3.27)
GATLNSYGIS	VKYSDGRRTFYGDSVK	CRAAGTFDS	ND / ND / ND	1/9 (3.36)
GFTLHSYGIS	VIYSDGRRTFYMFSVK	GRAAGTFDS	5.18 / ND / ND	0/9
GFTYNSYGTS	VIYSDGRRTFYGDSVK	GRAAGTFDS	0.60 / 0.77 / 0.68	3/9 (5.03)
GSTLNSYKIS	VIYSDGRRTDYGDSVK	GRAAGTFDS	3.97 / 3.17 / 5.30	6/9 (4.61)
GFTLNSYGID	VIYSPGRRTFYGDSTK	GRAAGTFDS	ND / ND / ND	0/9
GFTLNSYQIS	VIYSDGRDTFYGDSVK	GRAAGTFDS	ND / ND / ND	3/9 (4.21)
GFTLNSLGIS	VIYSDGRRTFYGDSVK	GRAAVKFDS	2.80 / 3.05 / 4.85	1/9 (3.55)
GFTLNSNGIS	VIYSDGRRTFYGDSGK	GRAAGTFDS	ND / ND / ND	2/9 (3.42)
GNTLNSYGIS	RIYSDGRRTFYGDSQK	GRAAGTFDS	ND / ND / ND	1/9 (4.06)
GFTLNSYGIS	VIYSDGRRTFYGSSPK	GRAAGTFDR	ND / ND / ND	1/9 (2.63)
GFCLNSYNIS	VIYSDGRRTFYGDSVK	GRAAGTADS	ND / ND / ND	0/9
KFTLNSYGIS	VIYSDGRRTFYGDRVK	GRAAGTFDY	4.58 / 3.09 / 3.13	7/9 (4.43)
GFTWLSYGIS	VIYSDGRRTFYFDSVK	GRAAGTFDS	5.11 / 4.15 / ND	6/9 (4.38)
GFTLNSYGFS	VIYSDGRQTLYGDSVK	GRAAGTFDS	4.72 / 5.41 / 6.14	3/9 (3.47)
GFTLNSYGIS	VNYSDGRPTFYGDNVK	GRAAGTFDS	ND / ND / ND	1/9 (4.34)
GFTLNSYGIS	VIYSKGRRTFYGDSWK	GRAAGTFDR	ND / ND / ND	0/9
GFTLNSFYIS	VIYSDGRRTFWGDSVK	GRAAGTFDS	ND / ND / ND	0/9
KFTLNSYGDS	VIYSDGRRTFYGDSVK	LRAAGTFDS	ND / ND / ND	1/9 (4.64)
GFTLNSIGIS	VYYSDGRRTSYGDSVK	GRAAGTFDS	6.29 / ND / ND	0/9
GFTLNSYGIS	VIYSDGRRQFYGDSVK	GRMAGRFDS	ND / ND / ND	0/9
GFTLNSYGIS	AIYSDARRTFYGDSVP	GRAAGTFDS	ND / 4.80 / ND	3/9 (3.73)
GFTLNSVGIS	VIYSDGRRTFYGDSVK	GRDAMTFDS	ND / 3.45 / ND	5/9 (4.22)
GVTLNSYMIE	VIYSDGRRTFYGDSVK	GRAAGTFDS	4.96 / ND / ND	1/9 (3.65)

A selection of 6 entries from above:

CDR-H1	CDR-H2	CDR-H3	replicates, log10 nM	empty controls
GFTLFIYGIS	VIYSDIRRTFYGDSVK	GRAAGTFDS	4.93 / ND / 3.83	4/9 (4.84)
GFTLNSIGIS	VYYSDGRRTSYGDSVK	GRAAGTFDS	6.29 / ND / ND	0/9
GFTLNSYMIS	VIYSDGDRTFYGDHVK	GRAAGTFDS	3.85 / 3.86 / ND	3/9 (4.25)
GFTLNSYQLS	VIYSDGRRTAYGDSVK	GRAAGTFDS	ND / ND / ND	0/9
GFTLNSYGIS	VIYKDGRRTFYGDHVK	GRAAGAFDS	ND / 4.75 / ND	3/9 (3.27)
KFTLNSYGIS	VIYSDGRRTFYGDRVK	GRAAGTFDY	4.58 / 3.09 / 3.13	7/9 (4.43)

Empty control strains, which show no peptide, gave a signal in 15% of pairings with library AAYL49; the median was 4.06 and 95% of these signals were weaker than 2.83. No background was subtracted. For each scFv, signals with the empty controls are counted beside the result, with their mean in brackets.

Reference: Engelhart et al. 2022, doi:10.1038/s41597-022-01779-4. File: FLAb, binding data.